Results from article PMC3885247 (Journal of medicinal chemistry, 2008).

Columns and labels:
Type in all cases: biochemical
tgDHFR = target: T1, tgDHFR (Toxoplasma gondii, UniProt Q07422); settings: comparator 8
T1 sequence (Q07422 1-610): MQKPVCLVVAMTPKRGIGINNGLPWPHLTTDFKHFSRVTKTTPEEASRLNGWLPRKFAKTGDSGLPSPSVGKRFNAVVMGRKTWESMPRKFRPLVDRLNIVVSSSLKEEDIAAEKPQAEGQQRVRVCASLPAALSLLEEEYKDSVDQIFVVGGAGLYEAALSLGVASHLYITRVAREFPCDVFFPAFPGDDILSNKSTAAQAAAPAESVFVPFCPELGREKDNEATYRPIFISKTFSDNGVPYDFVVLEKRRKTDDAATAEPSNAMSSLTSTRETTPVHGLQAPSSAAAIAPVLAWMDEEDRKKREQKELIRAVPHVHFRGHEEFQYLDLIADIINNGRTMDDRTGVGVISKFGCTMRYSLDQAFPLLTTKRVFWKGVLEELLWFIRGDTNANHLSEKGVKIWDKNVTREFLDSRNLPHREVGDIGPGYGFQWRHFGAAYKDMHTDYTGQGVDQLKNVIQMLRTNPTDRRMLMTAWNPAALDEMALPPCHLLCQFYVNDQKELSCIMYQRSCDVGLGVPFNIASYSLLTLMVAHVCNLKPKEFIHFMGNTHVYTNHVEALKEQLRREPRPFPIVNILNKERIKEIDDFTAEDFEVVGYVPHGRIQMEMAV

pcDHFR = target: T2, pcDHFR (Pneumocystis carinii, UniProt P16184); assay: Inhibition of P. carinii DHFR; settings: comparator 8
T2 sequence (P16184 1-206): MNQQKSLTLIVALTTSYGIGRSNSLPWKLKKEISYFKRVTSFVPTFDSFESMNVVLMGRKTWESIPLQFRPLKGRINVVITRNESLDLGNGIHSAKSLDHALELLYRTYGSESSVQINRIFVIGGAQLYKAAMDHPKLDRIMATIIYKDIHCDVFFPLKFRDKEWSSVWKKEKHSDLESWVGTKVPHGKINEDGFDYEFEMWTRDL

maDHFR = target: T3, maDHFR (Mycobacterium avium, UniProt O30463); assay: Inhibition of M. avium DHFR
T3 sequence (O30463 1-181): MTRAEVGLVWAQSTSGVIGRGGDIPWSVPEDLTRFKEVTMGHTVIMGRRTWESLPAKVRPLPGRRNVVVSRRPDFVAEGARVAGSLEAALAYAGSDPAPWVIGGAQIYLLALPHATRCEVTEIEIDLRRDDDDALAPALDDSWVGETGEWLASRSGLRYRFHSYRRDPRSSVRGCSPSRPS

CCCN(Cc1cc(OC)ccc1OC)c1ccc2nc(N)nc(N)c2c1 [Compound 10, 2,4-Diamino-6-[N-(2,5-dimethoxybenzyl)-N-propylamino]quinazoline]
Fold decrease in potency against tgDHFR compared to 8 (tgDHFR): 3 fold
Fold less potent against pcDHFR than 8 (pcDHFR): 4 fold
Selectivity ratio rl/ma (IC50 rlDHFR/IC50 maDHFR) (maDHFR): 1.6
Fold decrease in potency against maDHFR compared to 8 (maDHFR; comparator 8): 3 fold
Fold less selective for maDHFR versus rlDHFR compared to 8 (maDHFR; comparator 8): 3 fold
